In ChEMBL document CHEMBL2406932, “Heteroaromatic and aniline derivatives of piperidines as potent ligands for vesicular acetylcholine transporter” (J Med Chem, 2013):
pKi: −log10 of the molar value.

Sequences of proteins named here, by UniProt entry; tags and fusion partners are left off.
UniProt Q60492, whole entry: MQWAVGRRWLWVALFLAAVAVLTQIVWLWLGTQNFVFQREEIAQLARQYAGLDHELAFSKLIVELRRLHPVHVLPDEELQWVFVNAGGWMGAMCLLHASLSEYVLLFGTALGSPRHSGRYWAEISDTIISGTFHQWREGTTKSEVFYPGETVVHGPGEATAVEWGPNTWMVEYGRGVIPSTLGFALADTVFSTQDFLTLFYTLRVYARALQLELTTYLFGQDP

Key:
PC-12 [1] = assay: Selectivity ratio, ratio of Ki for sigma 2 receptor in rat liver homogenates to Ki for human VAChT expressed in rat PC12 cells; assay type: cell-based
PC-12 [2] = assay: Selectivity ratio, ratio of Ki for sigma 1 receptor in guinea pig brain homogenates to Ki for human VAChT expressed in rat PC12 cells; assay type: cell-based
Method in brief: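 Sigma-1 binding used guinea pig brain membranes (~300 µg protein) with ~5 nM (+)-[3H]pentazocine, 90 min at room temperature; nonspecific binding was set with 10 µM haloperidol. […] The index is Ki(σ1)/Ki(VAcHT).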

[3] = biological target: Sigma non-opioid intracellular receptor 1 (Cavia porcellus, UniProt Q60492); assay: Displacement of (+)- [3H]pentazocine from sigma 1 receptor expressed in guinea pig brain membrane homogenates by scintillation counting analysis; assay type: cell membranes
Method in brief: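 Guinea pig brain membrane homogenate (~300 µg protein) with ~5 nM (+)-[3H]pentazocine, 90 min at room temperature in 50 mM Tris-HCl, 150 mM NaCl, pH 7.4. Nonspecific binding taken with 10 µM haloperidol. Stopped with ice-cold wash buffer, then rapid filtration and washes. IC50 from nonlinear regression, one-site fit.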

**Q.** Which results are given for `O=C(c1ccc(F)cc1)C1CCN([C@@H]2Cc3ccccc3C[C@H]2O)CC1` (relative stereo)?
**A.** Ratio Ki (PC-12 [1]): 93; Ratio Ki (PC-12 [2]): 71; pKi [3]: 6.72
